# Measured values: paper PMC3091354 (Journal of chromatography. B, Analytical technologies in …, 2011)
# Several values for one entry are separate records, joined by “and”; a condition that tells them apart may be missing. Equal entries are not always repeated.
# Assay type: in vivo
# Settings: mouse, single i.p. 200 mg/kg
structure (smiles),measurement,value
"COc1cccc(CN)c1O [3-MoSA, 3-methoxy-2-hydroxybenzylamine]","AUC (0-t), brain",1339 ± 88 µg·h/g and 1338.9 ± 87.6 µg·h/g
